Results: patent publication US20260248717A1, “METHOD OF TREATING LOWER TRACT UROTHELIAL CANCER” (TARIS Biomedical LLC, priority 2016, published 2026)

Test: Tolerability of gemcitabine bladder perfusion in the orthotopic rat model
Conditions: high dose treatment of gemcitabine (350 μg/ml)

Q: With `Nc1ccn([C@@H]2O[C@H](CO)[C@@H](O)C2(F)F)c(=O)n1` [gemcitabine, 2′,2′-difluorodeoxycytidine] as the molecule, how does the mortality read?
A: 2/6
